# OPERA 2.9 data: melting point values

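The numbers are reported measurements, compiled and curated for the OPERA QSAR suite. A listed value is a point estimate from one report or more. Method, purity and exact conditions of the single measurements are not given. The measured form (salt, isomer or mixture) is not always the one drawn. Unmarked limits or estimates from the upstream databases cannot be ruled out.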

Melting points are in °C.
Cells with "n/a" have no entry in this list.
The databases behind each value are named after "via".

compound	name	MP (°C)	via
CNCC(C)C1CCCCC1.Cl (stereo unspecified)	2-Cyclohexyl-N-methylpropan-1-amine--hydrogen chloride (1/1)	139	OCHEM
COc1cc(C=O)ccc1OCC(N)=O	2-(4-formyl-2-methoxyphenoxy)acetamide	156	OCHEM
O=S1(=O)CCC(Nc2ccccc2)C1 (stereo unspecified)	3-Anilino-1lambda~6~-thiolane-1,1-dione	121	OCHEM
CC(Cl)C(=O)Nc1cccc2ccccc12 (stereo unspecified)	2-chloro-N-1-naphthylpropanamide	147	OCHEM
COc1cc2[nH]c(=N)sc2cc1OC	2-Benzothiazolamine, 5,6-dimethoxy-	225	OCHEM
Cc1ncoc1C#N	4-Methyloxazole-5-carbonitrile	-2	eChemPortal
COc1ccc(C(=O)Nc2ccccc2)cc1[N+](=O)[O-]	4-Methoxy-3-nitro-N-phenylbenzamide	161	eChemPortal
Cc1n[nH]c(C)c1C=O	3,5-dimethyl-1H-pyrazole-4-carbaldehyde	86	OCHEM
Cc1c(C)c(C)c(C(=O)CCl)c(C)c1C	2-chloro-1-(pentamethylphenyl)ethanone	71	OCHEM
O=C1CCCc2c1[nH]c1ccccc21	2,3,4,9-tetrahydro-1H-carbazol-1-one	170	OCHEM
CC(C)CC1(C)OCC(CO)O1 (stereo unspecified)	1,3-Dioxolane-4-methanol, 2-methyl-2-(2-methylpropyl)-	50	eChemPortal
NCCO.O=C(O)NCCO	n/a	-51	eChemPortal
O=C(CCl)N1c2ccccc2CCc2ccccc21	n/a	97	OCHEM
C=CCSC(=O)n1c(N)c(-c2ccccc2C)c(=O)n1C(C)C	Fenpyrazamine	116	OCHEM
O=C(O)c1cccn1Cc1ccccc1	1-Benzyl-1H-pyrrole-2-carboxylic acid	125	OCHEM
O=C(O)c1cc(=O)n(-c2ccccc2)[nH]1	5-oxo-1-phenyl-2,5-dihydro-1H-pyrazole-3-carboxylic acid	257	OCHEM
Cc1oc2cc(O)ccc2c(=O)c1Oc1ccccc1	4H-1-Benzopyran-4-one, 7-hydroxy-2-methyl-3-phenoxy-	236	OCHEM
CC(C)(C)/C([O-])=C/C(=O)C(F)(F)C(F)(F)C(F)(F)F.CC(C)(C)/C([O-])=C/C(=O)C(F)(F)C(F)(F)C(F)(F)F.CC(C)(C)/C([O-])=C/C(=O)C(F)(F)C(F)(F)C(F)(F)F.[Nd+3]	n/a	207	ChemicalBook
Nc1nnc(-c2ccc3c(c2)OCO3)o1	1,3,4-Oxadiazol-2-amine, 5-(1,3-benzodioxol-5-yl)-	272	OCHEM
NNc1nc(Cl)c(Cl)cc1Cl	2,3,5-Trichloro-6-hydrazinylpyridine	162	OCHEM
CCOC(O)=NS(=O)(=O)c1ccc(C)cc1	Ethyl hydrogen (4-methylbenzene-1-sulfonyl)carbonimidate	85	eChemPortal
CC(C)(C)OC(=O)N1CCc2nc(N)sc2C1	n/a	227	OCHEM
COc1cc(C#N)ccc1C=O	4-Formyl-3-methoxybenzonitrile	113	eChemPortal
C[Si](C)(C)O[Si](C)(C)O[Si](C)(C)O[Si](C)(C)O[Si](C)(C)O[Si](C)(C)O[Si](C)(C)O[Si](C)(C)C	Octadecamethyloctasiloxane	-63	PubChem
COc1ccc2c(c1)CCCC2=CCC1(C)C(=O)CCC1=O	n/a	79	eChemPortal
c1ccc2cc(SSc3ccc4ccccc4c3)ccc2c1	2,2'-Disulfanediyldinaphthalene	140	OCHEM
O=C(O)CCCN1C(=O)CCC1=O	4-(2,5-dioxopyrrolidin-1-yl)butanoic acid	103	OCHEM
c1ccc2c(c1)NCCCS2	2,3,4,5-tetrahydro-1,5-benzothiazepine	23	OCHEM
CNS(=O)(=O)c1ccccc1N	2-amino-N-methylbenzenesulfonamide	54	OCHEM
CC(=O)NC1(C#N)CCC(Cl)C1 (stereo unspecified)	N-(3-Chloro-1-cyanocyclopentyl)acetamide	75	OCHEM
Cc1cc(C(=O)O)c(C)n1-c1ccc(F)cc1	1-(4-Fluorophenyl)-2,5-dimethyl-1H-pyrrole-3-carboxylic acid	233	OCHEM
O=C(CCl)Nc1ccc2nn(C3CCCC3)nc2c1	2-Chloro-N-(2-cyclopentyl-2H-benzotriazol-5-yl)acetamide	150	OCHEM
Cc1cc2ncc(Br)cn2n1	6-Bromo-2-methylpyrazolo[1,5-a]pyrimidine	138	OCHEM
CCOc1ccc(S(N)(=O)=O)cc1OCC	3,4-diethoxybenzenesulfonamide	153	OCHEM
Nc1cc(-c2ccc(F)cc2)no1	3-(4-fluorophenyl)isoxazol-5-amine	101	OCHEM
COc1ccc(C(=O)CC(C)=O)cc1	1-(4-Methoxyphenyl)butane-1,3-dione	53	OCHEM
O=C(O)c1cc(-c2ccc(-c3ccccc3)cc2)nc2ccccc12	2-Biphenyl-4-yl-quinoline-4-carboxylic acid	290	OCHEM
CCOc1ccc(-c2ccc(C)cc2)c(F)c1F	n/a	63	eChemPortal
C[N+](C)(CCCNS(=O)(=O)CCC(F)(F)C(F)(F)C(F)(F)C(F)(F)C(F)(F)C(F)(F)F)CC(=O)[O-]	6:2 Fluorotelomer sulfonamide betaine	150	eChemPortal
O=Cc1ccc(-c2ccccc2F)o1	5-(2-fluorophenyl)furan-2-carbaldehyde	67	OCHEM
O=C(O)c1cc(C(=O)O)cc(C(=O)O)c1	1,3,5-Benzenetricarboxylic acid	370.8	OCHEM, eChemPortal
CCN(CC)Cc1ncccc1O	2-[(Diethylamino)methyl]pyridin-3-ol	142	OCHEM
OC(Cl)=NCc1nnc(-c2ccccc2)o1	n/a	220	OCHEM
CCOC(=O)C(=O)CC(=O)c1ccc(Cl)cc1	Ethyl 4-(4-chlorophenyl)-2,4-dioxobutanoate	63	OCHEM
Nc1ccccc1S(=O)(=O)Nc1ccccc1	2-Amino-N-phenyl-benzenesulfonamide	119	OCHEM
O=S(=O)(O)c1cc(O)c2ccc(Nc3ccccc3)cc2c1	4-Hydroxy-7-(phenylamino)naphthalene-2-sulfonic acid	363.7	eChemPortal
C/C=C/CCc1ccc(-c2ccc(C)cc2)cc1	4-Methyl-4'-[(3E)-pent-3-en-1-yl]-1,1'-biphenyl	74.9	eChemPortal

The 3 lowest values of MP among the entries above:

compound	name	MP (°C)	via
C[Si](C)(C)O[Si](C)(C)O[Si](C)(C)O[Si](C)(C)O[Si](C)(C)O[Si](C)(C)O[Si](C)(C)O[Si](C)(C)C	Octadecamethyloctasiloxane	-63	PubChem
NCCO.O=C(O)NCCO	n/a	-51	eChemPortal
Cc1ncoc1C#N	4-Methyloxazole-5-carbonitrile	-2	eChemPortal

Data: OPERA 2.9 data sets, kmansouri/OPERA on GitHub.